Measurements taken from patent US20250059229A1, “Compositions and Methods for Selective Labeling of Secondary Amines” (Emory University, priority 2021, published 2025).

Experiment: Solubility of ethyne phenyldiazonium probes under aqueous reaction conditions
Details: aqueous solution; ACN:sodium phosphate buffer (1:9)

| Substance | solubility |
| --- | --- |
| 2-ethyne phenyldiazonium ion | limited solubility |
| 2-ethynyl-5-(methoxycarbonyl)benzene diazonium | high solubility |
